In published antibiotic growth screens (doi:10.1038/s41589-023-01349-8):
Some of the results follow.

Each molecule was assayed on A. baumannii ATCC 17978 (assay: relative growth (fraction of control); higher = less inhibition). Conditions: 50 µM.

SMILES | relative growth
CCCCCc1c2c(cc(O)c1C(=O)O)OC(=O)c1c(cc(OC)cc1C(=O)CCCC)O2 | 1.24
CC(C)CC(N)=O | 0.913
O=C(O)/C=C/C(=O)NN1C(=O)c2ccccc2C1=O | 0.889
C[C@H](CO)N1C[C@H](C)[C@@H](CN(C)S(=O)(=O)c2ccc(F)cc2)Oc2cc(Br)ccc2S1(=O)=O | 0.988
C/C(=C\CC[C@@H](C)[C@H]1C[C@@H](O)[C@@]2(C)[C@H]3CC[C@H]4C(C)(C)[C@@H](O[C@@H]5O[C@@H](CO[C@H]6O[C@@H](CO)[C@@H](O)[C@@H](O)[C@@H]6O)[C@@H](O)[C@@H](O)[C@@H]5O)CC[C@@]45C[C@@]35C[C@@H](O)[C@]12C)C(=O)O[C@H]1O[C@@H](CO)[C@@H](O)[C@@H]1O | 1.02
CO[C@H]1CN(C)C(=O)c2cc(NC(=O)NC3CCCCC3)ccc2OC[C@@H](C)N(CCc2ccccc2)C[C@@H]1C | 1.05
CC(C)NCC(O)COc1cccc2ccccc12.Cl (racemic) | 0.67
COc1c2occc2cc2ccc(=O)oc12 | 0.93
OCCN1C[C@@H](O)[C@@H](O)[C@@H](O)[C@@H]1CO | 1.05
C[C@@H](NCCC(c1ccccc1)c1ccccc1)c1ccccc1 | 0.743
O=C(C[C@@H]1C=C[C@@H](NC(=O)Nc2ccc3c(c2)OCO3)[C@H](CO)O1)NCCCN1CCOCC1 | 0.938
Cc1ccc(-c2ccc3c(c2)O[C@@H](CN(C)C(=O)NC(C)C)[C@@H](C)CN([C@H](C)CO)S3(=O)=O)cc1 | 0.794
Oc1ccc2ccccc2c1 | 0.613
Cc1cccc([C@@H](N)c2nccn2C)c1 | 0.862
Nc1ccc(-n2nn[nH]c2=S)cc1 | 1.01
O=C(N[C@H]1CC[C@@H](CCNS(=O)(=O)c2ccc(F)cc2)O[C@H]1CO)C1CC1 | 0.926
CC(=O)Oc1ccccc1C(=O)Nc1ncc([N+](=O)[O-])s1 | 0.81
COC(=O)c1cc(OC)c(OC)c(OC)c1 | 0.944
CCCN1C(=O)C[C@@H](N2CCOCC2)C1=O | 1.02
CO[C@H]1CN(C)C(=O)c2ccc(NS(C)(=O)=O)cc2OC[C@@H](C)N(C(=O)C2CCOCC2)C[C@@H]1C | 1.14
CCOC(=O)CCc1n[nH]c(=O)[nH]c1=O | 0.872

SMILES | relative growth
Oc1cc(O)c2c(c1)O[C@H](c1ccc(O)c(O)c1)[C@@H](O)C2 [CIANIDANOL [+-catechin]] | 0.94
COCc1cc(C)nc(N)c1C#N | 0.911
N#Cc1cc(F)cc(Oc2ccc(S(=O)(=O)C(F)F)c3c2CC(F)(F)[C@@H]3O)c1.N#Cc1cc(F)cc(Oc2ccc(S(=O)(=O)C(F)F)c3c2CC(F)(F)[C@H]3O)c1 | 1.13
CC1(C)OC(=O)C(OCC2CC2)=C1c1ccc(S(C)(=O)=O)cc1 | 0.997
CCCCC(O)c1ccccc1 (centres undefined) | 0.987
CN(C)Cc1cn(CC[C@H]2CC[C@@H](N)[C@H](CO)O2)nn1 | 0.939
C/N=C1/S[C@@H]2CS(=O)(=O)C[C@@H]2N1C | 0.898
CO[C@H]1CN(C)C(=O)c2ccc(NS(=O)(=O)c3cn(C)cn3)cc2OC[C@@H](C)N(Cc2cccc(F)c2)C[C@H]1C | 0.891
CC(C)(C(=O)O)c1ccc([C@@H](O)CCCN2CCC(C(O)(c3ccccc3)c3ccccc3)CC2)cc1 | 0.931
CO[C@H]1CN(C)C(=O)c2ccc(NC(=O)C3CCOCC3)cc2OC[C@@H](C)N(Cc2cccnc2)C[C@@H]1C | 1.07
COc1cccc(NC(=O)N[C@@H]2CC[C@@H](CC(=O)N3CCOCC3)O[C@H]2CO)c1 | 0.973
Cc1c(C)c2ccc(O[C@@H]3O[C@H](CO)[C@H](O)[C@H](O)[C@H]3O)cc2oc1=O | 0.963
C=CCOC(=O)[C@H]1[C@@H]2C(=O)O[C@@H](c3ccccc3)[C@@H](c3ccccc3)N2[C@@H](c2ccc(OCCOC(=O)[C@H]3C[C@H]4C(=O)NCC(=O)N4[C@H]3c3cccc(OCCO)c3)cc2)[C@]12C(=O)Nc1ccc(I)cc12 | 1.08
COc1cccc(NC(=O)N[C@@H]2C=C[C@@H](CC(=O)N3CCOCC3)O[C@H]2CO)c1 | 1.03
O=c1cc(-c2ccccc2)oc2c(O)c(O)ccc12 | 0.898
CCCCOCCOCCOCc1cc2c(cc1CCC)OCO2 | 1.03
Cc1cc(-c2ccc(/N=N/c3ccc4c(S(=O)(=O)[O-])cc(S(=O)(=O)[O-])c(N)c4c3O)c(C)c2)ccc1/N=N/c1ccc2c(S(=O)(=O)[O-])cc(S(=O)(=O)[O-])c(N)c2c1O.[Na+].[Na+].[Na+].[Na+] | 5.51
CC(=O)NCCCC[C@@H]1NC(=O)[C@H]2C[C@@H](C(=O)NCCCCCCNC(=O)CS)[C@@H](c3ccc(O)cc3)N2C1=O | 1.19
COc1ccc([C@@H]2CC(=O)c3c(O)cc(O)cc3O2)cc1O | 0.899
C=CC[C@H](CC(=O)NCCO)C(=O)N[C@@H](COC(=O)[C@@H](CC=C)CC(=O)OC(C)(C)C)Cc1c[nH]c2ccccc12 | 1
COc1ccccc1CNC(=O)C[C@@H]1C[C@@H]2c3cc(NC(=O)Nc4ccc(C(F)(F)F)cc4)ccc3O[C@@H]2[C@@H](CO)O1 | 0.828

SMILES | relative growth
CC[C@H](CCC(C)[C@H]1CCC2C3CCC4C[C@@H](O)CC[C@]4(C)C3CC[C@@]21C)C(C)C (some centres undefined) | 0.987
CN1CCc2cccc3c2C1Cc1ccc(O)c(O)c1-3.Cl (centres undefined) | 0.886
O=C1OCCN(c2ccccc2)C1=O | 0.794
CO[C@H](CN(C)C(=O)c1ccc2c(c1)OCO2)[C@H](C)CN([C@H](C)CO)S(=O)(=O)c1ccc(F)cc1 | 1.27
C=CCC(N)(CC=C)c1ccc(C)cc1 | 0.987
CCOC(=O)C1CCN(c2cn[nH]c(=O)n2)CC1 | 0.842
Cc1ccccc1S(=O)(=O)N1C[C@H](O)COC[C@H]2O[C@@H](CC(=O)N3CCN(C)CC3)CC[C@@H]21 | 0.891
COC(=O)C[C@H]1C2(C)CC34OC5(C)O[C@@]6([C@H](OC(C)=O)C(OC(C)=O)[C@]7(C)C(/C(=C(/O)C(C)C)C(=O)O[C@H]7c7ccoc7)[C@@]6(O5)[C@H](OC(C)=O)[C@@]3(O)C2OC(=O)C(C)C)[C@]14C (some centres undefined) | 0.99
Cn1c(=O)n(C)c2cc(CN)ccc21 | 1.07
CCNc1nc2nonc2nc1NCC | 1.07
N#CCSc1ncnc2c1cnn2CCO | 1.17
CO[C@H]1CN(C)C(=O)c2ccc(NS(C)(=O)=O)cc2OC[C@@H](C)N(C(=O)CN(C)C)C[C@@H]1C | 0.927
COC(=O)C1=C(C)NC(C)=C(C(=O)OCCN(C)Cc2ccccc2)C1c1cccc([N+](=O)[O-])c1.Cl (centres undefined) | 1.06
COC(=O)[C@@H](Cc1ccccc1)N[C@H](/C=C/C1CC1)[C@@H](O)CCn1cc(-c2ccc(C(=O)NO)s2)nn1 | 1.03
CO[C@@H](CN(C)S(=O)(=O)c1ccc(C)cc1)[C@H](C)CN([C@H](C)CO)S(=O)(=O)c1cccc(Cl)c1 | 0.862
Cc1ccc(OCCn2c(CC(C)(C)C)nc3ccccc32)cc1 | 0.768
O=C(C[C@@H]1CC[C@@H]2[C@H](COC[C@H](O)CN2C(=O)Nc2cc(Cl)cc(Cl)c2)O1)N1CCOCC1 | 0.942
CCN1C(=O)[C@H]2[C@@H](O)CS[C@H]2C1=O | 0.93
COc1cccc(S(=O)(=O)Nc2ccc3c(c2)[C@H]2C[C@H](CC(=O)NCc4ccccc4F)O[C@H](CO)[C@H]2O3)c1 | 0.753
O=C(CN1CCOCC1)NCC[C@H]1CC[C@@H](NC(=O)Nc2ccccc2)[C@@H](CO)O1 | 1.2
CC1=NCC[C@@H](C(=O)O)N1 | 1.02

SMILES | relative growth
O=C(N[C@H]1CC[C@@H](CC(=O)N2CCOCC2)O[C@H]1CO)c1ccc2c(c1)OCO2 | 0.952
COCC#Cc1ccc2c(c1)O[C@@H](CN(C)Cc1ccccc1F)[C@H](C)CN([C@@H](C)CO)S2(=O)=O | 1.21
O=C(CN1CCOCC1)N[C@H]1CC[C@@H](CCNC(=O)Nc2cc(F)ccc2F)O[C@@H]1CO | 1.04
C=CCOc1ccc(CNn2nnnc2N)cc1 | 0.965
O=C(C[C@@H]1C=C[C@@H](NC(=O)CN2CCOCC2)[C@H](CO)O1)NC1CCC1 | 0.962
O.O=C([O-])CC(O)(CC(=O)[O-])C(=O)[O-].[Li+].[Li+].[Li+] | 0.939
C=C(CO)C(=O)O[C@H]1C[C@@]2(C)OC(=O)/C(=C/C)[C@]2(O)CC[C@@]2(C)CC(=O)[C@]1(C(=C)C(=O)OC)O2 | 1.1
CN(C)C(=O)N1CCNCC1 | 1.06
Clc1cc(Cl)cc(Oc2nc(-c3ccccc3)ns2)c1 | 1.18
CCCC[C@@H](CC)COC(=O)c1ccccc1O | 0.927
O=C1c2c(O)cccc2Cc2cccc(O)c21 | 0.877
CNc1nc(OC)cc(OC)n1 | 1.18
COc1cccc2c1C(=O)c1c(O)c3c(c(O)c1C2=O)C[C@@](O)(C(C)=O)C[C@@H]3O[C@H]1C[C@H](N)[C@H](O)[C@H](C)O1.Cl | 0.562
C[C@@H]1O[C@@H](O[C@@H]2[C@@H](O)[C@H](OCCc3ccc(O)c(O)c3)O[C@H](COC(=O)/C=C/c3ccc(O)c(O)c3)[C@H]2O)[C@H](O)[C@H](O)[C@H]1O | 1.09
O/N=C/c1ccccc1C(F)(F)F | 0.939
C[C@@H]1CN([C@@H](C)CO)S(=O)(=O)c2ccc(C#CCN(C)C)cc2O[C@H]1CN(C)Cc1ccc(F)cc1 | 0.567
CO/N=C(/C(=O)NC1C(=O)N2C(C(=O)O)=C(C[N+]3(C)CCCC3)CSC12)c1csc(N)n1.[Cl-] (centres undefined) | 0.152
N#Cc1ncoc1N1CCC(C(N)=O)CC1 | 1.02
CCCCCCCCCCCCCCCC(=O)OCC(O)CO (centres undefined) | 1.17
O=C(CN1CCOCC1)NCC[C@H]1CC[C@H](NC(=O)Cc2ccccn2)[C@H](CO)O1 | 1.07
CCC(=O)N(C)C[C@H]1Oc2ncc(C#C[C@@H](C)O)cc2C(=O)N([C@H](C)CO)C[C@@H]1C | 0.979
